Bounds are passed on as bounds.

Chains of the proteins cited; added tags and fusions are not shown. Lines headed by an entry give the natural chain unless they say otherwise; changes in a name come on top.
UniProt P09483: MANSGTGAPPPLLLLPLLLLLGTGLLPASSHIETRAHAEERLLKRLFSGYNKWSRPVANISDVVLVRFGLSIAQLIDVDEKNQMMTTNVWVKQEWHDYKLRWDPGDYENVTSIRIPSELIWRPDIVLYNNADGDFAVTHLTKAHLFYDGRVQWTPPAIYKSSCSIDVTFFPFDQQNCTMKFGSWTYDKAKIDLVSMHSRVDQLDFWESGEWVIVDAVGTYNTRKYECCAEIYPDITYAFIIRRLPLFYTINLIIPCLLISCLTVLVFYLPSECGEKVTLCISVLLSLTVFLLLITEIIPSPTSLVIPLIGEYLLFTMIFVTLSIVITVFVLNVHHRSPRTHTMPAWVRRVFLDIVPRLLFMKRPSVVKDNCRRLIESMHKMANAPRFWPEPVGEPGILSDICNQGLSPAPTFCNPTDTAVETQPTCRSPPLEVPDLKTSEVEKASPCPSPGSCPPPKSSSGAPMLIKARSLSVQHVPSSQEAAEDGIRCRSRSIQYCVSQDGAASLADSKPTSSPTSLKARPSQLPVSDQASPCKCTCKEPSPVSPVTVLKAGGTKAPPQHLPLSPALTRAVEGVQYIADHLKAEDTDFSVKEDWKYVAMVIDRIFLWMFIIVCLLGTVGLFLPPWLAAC
UniProt P12390, whole entry: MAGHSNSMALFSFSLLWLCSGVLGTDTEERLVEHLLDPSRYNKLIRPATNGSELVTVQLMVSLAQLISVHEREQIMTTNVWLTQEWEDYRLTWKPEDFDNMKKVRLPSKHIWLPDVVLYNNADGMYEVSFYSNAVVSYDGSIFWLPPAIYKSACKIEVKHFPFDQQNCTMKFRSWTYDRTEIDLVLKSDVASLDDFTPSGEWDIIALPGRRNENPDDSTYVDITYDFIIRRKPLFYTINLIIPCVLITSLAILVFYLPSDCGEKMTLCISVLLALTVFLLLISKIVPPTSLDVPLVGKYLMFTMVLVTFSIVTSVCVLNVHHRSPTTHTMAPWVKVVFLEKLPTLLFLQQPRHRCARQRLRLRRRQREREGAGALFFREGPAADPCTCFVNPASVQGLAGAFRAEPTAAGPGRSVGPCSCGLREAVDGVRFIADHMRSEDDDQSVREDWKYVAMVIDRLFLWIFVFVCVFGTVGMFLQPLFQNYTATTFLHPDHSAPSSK
UniProt Q05941, whole entry: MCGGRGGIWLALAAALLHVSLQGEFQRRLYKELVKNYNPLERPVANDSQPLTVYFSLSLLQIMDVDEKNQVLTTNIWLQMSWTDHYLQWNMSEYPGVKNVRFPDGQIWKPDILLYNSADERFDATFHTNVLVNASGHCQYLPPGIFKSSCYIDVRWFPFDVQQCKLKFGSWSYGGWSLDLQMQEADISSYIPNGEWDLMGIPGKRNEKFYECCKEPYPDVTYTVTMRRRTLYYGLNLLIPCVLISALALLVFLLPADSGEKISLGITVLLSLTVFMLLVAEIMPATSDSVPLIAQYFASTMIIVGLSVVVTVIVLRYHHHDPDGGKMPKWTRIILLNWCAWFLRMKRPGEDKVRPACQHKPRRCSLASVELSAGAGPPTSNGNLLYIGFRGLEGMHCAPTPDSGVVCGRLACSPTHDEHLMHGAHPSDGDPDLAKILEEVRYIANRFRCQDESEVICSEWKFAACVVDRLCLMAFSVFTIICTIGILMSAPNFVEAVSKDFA

Assay [1] has as its target Neuronal acetylcholine receptor; alpha4/beta2 (Rattus norvegicus, UniProt P09483+P12390). The assay is described as follows: Inhibition of [3H]-Cytisine binding to nicotinic acetylcholine receptor alpha4-beta2 from rat cerebral cortex. The format is tissue-based.
The target of assay [2] is Neuronal acetylcholine receptor subunit alpha-7 (Rattus norvegicus, UniProt Q05941). The experiment in a line: Inhibition of [125I]alpha-bungarotoxin binding to rat nicotinic acetylcholine receptor alpha7. In short, it runs like this: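 Membranes from Wistar rat hippocampus made by sucrose homogenisation and differential centrifugation, then resuspended in 118 mM NaCl, 4.8 mM KCl, 2.5 mM CaCl2, 1.2 mM MgCl2, 20 mM Na-HEPES pH 7.5. Incubated with [125I]-α-bungarotoxin plus compounds, 37 °C, 3 h. Bound label collected by filtration. Nonspecific binding defined with 100 µM (−)-nicotine.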

For orientation: IC50 means the concentration that gives 50% inhibition. A lower IC50 goes with greater potency. In assay [1], `O=C1NC[C@@]2(CN3CCC2CC3)O1` registered a half-maximal inhibitory concentration (IC50) of over 10000 nM.
Broadly, the Ki is a measure of affinity in units of concentration, obtained from inhibition or displacement. A high value points to lower affinity. The compound `O=C1O[C@]2(CN3CCC2CC3)CN1c1ccc2ccccc2n1` displayed a Ki in assay [2] of 450 nM.

For the origin of these results see ChEMBL document CHEMBL1143582, “Discovery of the alpha7 nicotinic acetylcholine receptor agonists. (R)-3'-(5-Chlorothiophen-2-yl)spiro-1-azabicyclo[2.2.2]octane-3,5'-[1',3']oxazolidin-2'-one as a novel, potent, selective, and orally bioavailable ligand” (J Med Chem, 2005).
